Measurements reported in patent US8603466 (KING S COLLEGE LONDON, dated 2013).

Target: human TSHR on stably transfected CHO cells (human) (UniProt P16473)
Assay: cell-based or functional assay

Substance: Bovine TSH (bTSH, Sigma-Aldrich) (from UniProt P01217 25-120; P01223 21-132) (ligand)
- TSH dose giving maximal cAMP stimulation, NaCl containing buffer: 40 µU/ml
- cAMP response to a sub-saturating dose of bTSH, physiological isotonic medium: 157 pmol/ml
- cAMP response to a sub-saturating dose of bTSH, salt free medium: 164 pmol/mL
